Literature values, collected in PMC8214142.

Molecular target: WDR5 (Homo sapiens) (UniProt P61964)
Test: sedimentation velocity

MLL1 225-residue MLL1Win-containing polypeptide (from UniProt Q03164)
Kd: 0.12 µM
